Assays:
Test in all cases: Kinase Profiling Assay
Format in all cases: biochemical
Details in all cases: 100 μM peptide
PAR-1Bα(h) = molecular target: T1, PAR-1Bα(h) (Homo sapiens, UniProt Q7KZI7)
T1 sequence (Q7KZI7 1-725 isoform Q7KZI7-4): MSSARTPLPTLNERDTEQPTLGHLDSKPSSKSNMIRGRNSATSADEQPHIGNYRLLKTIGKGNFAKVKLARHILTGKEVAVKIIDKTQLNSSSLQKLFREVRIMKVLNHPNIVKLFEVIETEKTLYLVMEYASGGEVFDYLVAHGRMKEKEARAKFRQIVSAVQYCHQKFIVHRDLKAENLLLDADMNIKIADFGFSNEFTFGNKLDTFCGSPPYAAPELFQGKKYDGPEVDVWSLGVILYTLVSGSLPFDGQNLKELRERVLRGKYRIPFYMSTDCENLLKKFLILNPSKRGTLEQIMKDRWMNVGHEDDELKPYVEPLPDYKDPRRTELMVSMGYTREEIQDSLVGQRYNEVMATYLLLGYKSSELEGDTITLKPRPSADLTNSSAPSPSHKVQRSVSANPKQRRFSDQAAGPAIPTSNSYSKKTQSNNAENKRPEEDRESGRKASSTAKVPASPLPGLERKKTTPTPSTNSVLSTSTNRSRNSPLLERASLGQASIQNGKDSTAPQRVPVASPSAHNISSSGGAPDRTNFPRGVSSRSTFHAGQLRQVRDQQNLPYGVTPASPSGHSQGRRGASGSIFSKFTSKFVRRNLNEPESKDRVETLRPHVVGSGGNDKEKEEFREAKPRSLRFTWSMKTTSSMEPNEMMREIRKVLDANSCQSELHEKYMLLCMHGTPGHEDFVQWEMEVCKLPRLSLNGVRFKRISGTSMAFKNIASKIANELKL
Protocol: (§1) Every kinase activity measurement was conducted in duplicate.
(§2) In addition to determining the IC50 of the compound, the specificity of MK2 inhibitory peptides was assessed by examining activities of all 266 human kinases available for testing in the Millipore kinase profiling service (Table 1).

Abl(M351T)(h) = Abl(M351T)(h) (Homo sapiens, UniProt P00519, M351T)
Protocol: as §1, §2

Abl(T315I)(h) = Abl(T315I)(h) (Homo sapiens, UniProt P00519, T315I)
Protocol: as §1, §2

PKA(h) = PKA(h) (Homo sapiens, UniProt P17612)
Protocol: as §1, §2

Aurora-A(h) = molecular target: T2, Aurora-A(h) (Homo sapiens, UniProt O14965)
T2 sequence (O14965 1-403): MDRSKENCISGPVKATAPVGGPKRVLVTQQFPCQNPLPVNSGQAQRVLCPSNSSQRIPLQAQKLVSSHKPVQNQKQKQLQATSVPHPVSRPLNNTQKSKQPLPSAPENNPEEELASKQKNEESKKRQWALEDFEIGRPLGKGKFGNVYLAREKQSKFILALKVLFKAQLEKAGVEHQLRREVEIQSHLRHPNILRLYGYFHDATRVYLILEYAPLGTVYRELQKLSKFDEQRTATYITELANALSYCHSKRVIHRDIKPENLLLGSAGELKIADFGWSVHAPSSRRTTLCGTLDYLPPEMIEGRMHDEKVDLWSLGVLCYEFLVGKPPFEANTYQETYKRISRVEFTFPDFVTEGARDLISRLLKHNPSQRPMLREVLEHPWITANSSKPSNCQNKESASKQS
Protocol: as §1, §2

Abl(H396P)(h) = Abl(H396P)(h) (Homo sapiens, UniProt P00519, H396P)
Protocol: as §1, §2

c-RAF(h) = c-RAF(h) (Homo sapiens, UniProt P04049)
Protocol: as §1, §2

JAK2(h) = molecular target: T3, JAK2(h) (Homo sapiens, UniProt O60674)
T3 construct: purchased Millipore
Protocol: as §1, §2

PAK3(h) = PAK3(h) (Homo sapiens, UniProt O75914)
Protocol: as §1, §2

HIPK3(h) = molecular target: T4, HIPK3(h) (Homo sapiens, UniProt Q9H422)
T4 construct: purchased Millipore
Protocol: as §1, §2

CK1γ2(h) = CK1γ2(h) (Homo sapiens, UniProt P78368)
Protocol: as §1, §2

FGFR2(N549H)(h) = FGFR2(N549H)(h) (Homo sapiens, UniProt P21802, N549H)
Protocol: as §1, §2

CLK2(h) = CLK2(h) (Homo sapiens, UniProt P49760)
Protocol: as §1, §2

CK1γ1(h) = CK1γ1(h) (Homo sapiens, UniProt Q9HCP0)
Protocol: as §1, §2

PAK5(h) = PAK5(h) (Homo sapiens, UniProt Q9P286)
Protocol: as §1, §2

Plk1(h) = molecular target: T5, Plk1(h) (Homo sapiens, UniProt P53350)
T5 construct: purchased Millipore (IC50 Profiler Express service)
Protocol: as §1, §2

CK1γ3(h) = CK1γ3(h) (Homo sapiens, UniProt Q9Y6M4)
Protocol: as §1, §2

Lck(h) = Lck(h) (Homo sapiens, UniProt P06239)
Protocol: as §1, §2

IGF-1R(h) = molecular target: T6, IGF-1R(h) (Homo sapiens, UniProt P08069)
T6 construct: purchased Millipore
Protocol: as §1, §2

MKK7β(h) = molecular target: T7, MKK7β(h) (Homo sapiens, UniProt O14733)
T7 sequence (O14733 1-419): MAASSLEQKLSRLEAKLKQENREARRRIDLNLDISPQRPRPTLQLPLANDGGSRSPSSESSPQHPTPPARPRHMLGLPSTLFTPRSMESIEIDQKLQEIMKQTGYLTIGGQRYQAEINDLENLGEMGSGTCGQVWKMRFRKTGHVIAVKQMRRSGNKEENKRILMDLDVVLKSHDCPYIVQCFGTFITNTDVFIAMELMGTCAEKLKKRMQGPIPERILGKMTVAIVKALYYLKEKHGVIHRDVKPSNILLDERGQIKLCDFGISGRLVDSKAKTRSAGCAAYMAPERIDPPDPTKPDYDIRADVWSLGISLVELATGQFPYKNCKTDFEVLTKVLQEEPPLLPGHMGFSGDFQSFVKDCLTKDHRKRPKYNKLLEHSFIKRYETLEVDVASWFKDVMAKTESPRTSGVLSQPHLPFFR
Protocol: as §1, §2

FGFR1(V561M)(h) = FGFR1(V561M)(h) (Homo sapiens, UniProt P11362, V561M)
Protocol: as §1, §2

Fgr(h) = Fgr(h) (Homo sapiens, UniProt P09769)
Protocol: as §1, §2

GRK5(h) = molecular target: T8, GRK5(h) (Homo sapiens, UniProt P34947)
T8 construct: purchased Millipore
Protocol: as §1, §2

CK2α2(h) = CK2α2(h) (Homo sapiens, UniProt P19784)
Protocol: as §1, §2

JNK1α1(h) = molecular target: T9, JNK1α1(h) (Homo sapiens, UniProt P45983)
T9 construct: purchased Millipore
Protocol: as §1, §2

PAK6(h) = PAK6(h) (Homo sapiens, UniProt Q9NQU5)
Protocol: as §1, §2

KAFAKLAARLYRKALARQLGVAA [MMI-0400] was tested, and the “PAR-1Bα(h) % activity” value (PAR-1Bα(h)) was 109%, the “Abl(M351T)(h) % activity” value (Abl(M351T)(h)) was 121% and the “Abl(T315I)(h) % activity” value (Abl(T315I)(h)) was 105%. For the same sequence, the “PKA(h) % activity” value (PKA(h)) was 119%, the “Aurora-A(h) % activity” value (Aurora-A(h)) was 119% and the “Abl(H396P)(h) % activity” value (Abl(H396P)(h)) was 105%. The “c-RAF(h) % activity” value (c-RAF(h)) was 102%, the “JAK2(h) % activity” value (JAK2(h)) was 119% and the “PAK3(h) % activity” value (PAK3(h)) was 121%. The “HIPK3(h) % activity” value (HIPK3(h)) was 105%, the “CK1γ2(h) % activity” value (CK1γ2(h)) was 114% and the “FGFR2(N549H)(h) % activity” value (FGFR2(N549H)(h)) was 112%. The “CLK2(h) % activity” value (CLK2(h)) was 116%, the “CK1γ1(h) % activity” value (CK1γ1(h)) was 116% and the “PAK5(h) % activity” value (PAK5(h)) was 117%. The “Plk1(h) % activity” value (Plk1(h)) was 119%, the “CK1γ3(h) % activity” value (CK1γ3(h)) was 115% and the “Lck(h) % activity” value (Lck(h)) was 228%.
With “HRRIKAWLKKIKALARQLGVAA (Mammalian) [MMI-0500]” the “IGF-1R(h) % activity” value (IGF-1R(h)) was 117%, the “MKK7β(h) % activity” value (MKK7β(h)) was 102% and the “FGFR1(V561M)(h) % activity” value (FGFR1(V561M)(h)) was 113%. For the same sequence, the “Fgr(h) % activity” value (Fgr(h)) was 109%, the “GRK5(h) % activity” value (GRK5(h)) was 116% and the “PAK3(h) % activity” value (PAK3(h)) was 102%. For the same sequence, the “CK2α2(h) % activity” value (CK2α2(h)) was 103%, the “JNK1α1(h) % activity” value (JNK1α1(h)) was 109% and the “CK1γ2(h) % activity” value (CK1γ2(h)) was 119%. For the same sequence, the “FGFR2(N549H)(h) % activity” value (FGFR2(N549H)(h)) was 105%, the “CLK2(h) % activity” value (CLK2(h)) was 116% and the “PAK6(h) % activity” value (PAK6(h)) was 107%. The “CK1γ1(h) % activity” value (CK1γ1(h)) was 109%, the “Plk1(h) % activity” value (Plk1(h)) was 104% and the “CK1γ3(h) % activity” value (CK1γ3(h)) was 114%.
